From patent US20220017572A1, “GEMINOID LIPOPEPTIDE COMPOUNDS AND THEIR USES” (Erasmus University Medical Center Rotterdam, priority 2016, published 2022)

The chains behind the UniProt entries cited, without tags or fusion partners. Residues count along the entry.
UniProt P09958, 108-794 limits assumed: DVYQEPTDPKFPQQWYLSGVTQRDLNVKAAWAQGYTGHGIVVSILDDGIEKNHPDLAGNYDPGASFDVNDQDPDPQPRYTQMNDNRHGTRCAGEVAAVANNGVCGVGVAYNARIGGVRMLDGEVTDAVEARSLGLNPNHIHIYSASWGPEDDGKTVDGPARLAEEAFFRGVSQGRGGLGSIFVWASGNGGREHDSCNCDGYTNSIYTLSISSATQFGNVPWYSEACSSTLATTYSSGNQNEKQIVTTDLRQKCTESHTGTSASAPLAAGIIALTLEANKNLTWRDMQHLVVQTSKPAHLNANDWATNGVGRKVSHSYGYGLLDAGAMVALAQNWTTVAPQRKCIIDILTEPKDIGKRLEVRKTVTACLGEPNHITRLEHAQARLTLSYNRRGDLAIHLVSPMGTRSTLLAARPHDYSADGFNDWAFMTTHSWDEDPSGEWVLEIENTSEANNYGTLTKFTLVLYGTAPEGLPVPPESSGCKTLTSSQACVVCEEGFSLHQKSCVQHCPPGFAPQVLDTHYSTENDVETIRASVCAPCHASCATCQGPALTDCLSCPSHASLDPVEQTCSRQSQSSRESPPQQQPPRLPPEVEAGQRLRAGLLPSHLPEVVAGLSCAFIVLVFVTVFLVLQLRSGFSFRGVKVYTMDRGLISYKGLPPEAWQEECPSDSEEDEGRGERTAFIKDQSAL

Molecular target: human furin (Homo sapiens, UniProt P09958)
Experiment: Human furin inhibition, hydrolysis of Ac-RVRR-MCA
Settings: read-out: Ki hFurin; gemini surfactants of type B, Table 3
Method: The enzyme was dissolved in 1 mL MES buffer (10 mM), 1 mM CaCl2, pH 7.0 at 36.5° C. Substrate was added in a concentration 10 times the Km, and the inhibitor compounds of type C (C16-KGnK-C16, C16-KAnK-C16, and C16-RAnR-C16) were added in increasing concentrations (1.0, 5.0, 10.0, 20.0, 40.0 μL) from a stock solution of 2 mg in 1 mL DMSO. The residual activity was measured in a Hitachi F2500 spectrofluorimeter, and plots were fitted using the Grafit® software (Erithracus Software, Horley, Surrey, UK). All the assays were calculated by the Morrison equation for competitive inhibition (eq. 1, [Morrison, 1969]). The amount of substrate used for the tight binding titration experiments follow all the requirements, where [S]<<Km for all enzymes, so the Kiapp=Ki.
However, for furin we used a correction of Ki app, where [S]˜Km (eq. 2).
Range of Proteases Inhibited by Geminoids, Determination of Ki with Z-RR-MCA (Dengue 2 Protease) and Ac-RVRR-MCA (Furin) (SEQ ID NO:60).

In the case of `CCCCCCCCCCCC(=O)N[C@@H](CCCCN)C(=O)NCCCCCCNC(=O)[C@H](CCCCN)NC(=O)CCCCCCCCCCC`, the Ki is reported as 1600 nM.
